Experimental findings from paper PMC3196589, “Fluorescent Peptide Biosensor for Probing the Relative Abundance of Cyclin-Dependent Kinases in Living Cells” (PLoS ONE, 2011) are described below.

By UniProt entry, the sequences of proteins in these tests, tags left out.
UniProt P08515, whole entry: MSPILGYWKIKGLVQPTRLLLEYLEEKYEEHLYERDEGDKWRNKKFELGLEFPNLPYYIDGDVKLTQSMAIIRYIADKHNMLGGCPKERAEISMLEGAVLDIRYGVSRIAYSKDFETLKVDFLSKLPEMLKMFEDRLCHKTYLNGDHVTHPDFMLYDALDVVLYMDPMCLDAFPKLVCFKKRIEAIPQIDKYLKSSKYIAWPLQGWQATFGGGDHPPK

pKd: −log10 of the molar value. No end group written: not given here.

Assay [1] addresses GST (Schistosoma japonicum, UniProt P08515). Put plainly: Steady-state fluorescence titration of FITC-labelled peptide (specificity control). In kind it is binding. The note with it: 200 nM FITC-labelled peptide, potassium phosphate buffer pH 7.2, 150 mM NaCl, 25°C.
For assay [2], the target named is MBP (Escherichia coli, UniProt P0AEX9). The description is as above. In kind it is binding. The note with it: 200 nM FITC-labelled peptide, potassium phosphate buffer pH 7.2, 150 mM NaCl, 25°C.
Assay [3] concerns the target T1, GST-Cyclin A (Homo sapiens, UniProt P20248).
T1 construct: made in house; host or cells: E. coli
The experiment in a line: Steady-state fluorescence titration of FITC-labelled peptide. The note with it: 200 nM FITC-labelled peptide, potassium phosphate buffer pH 7.2, 150 mM NaCl, 25°C, ex 485/em 520 nm, quadratic fit. The class given is binding.

Assay [4] has as its target T2, GST-CDK2 (Homo sapiens, UniProt P24941).
T2 construct: made in house; host or cells: E. coli
The assay is described as above. In kind it is binding. The note with it: 200 nM FITC-labelled peptide, potassium phosphate buffer pH 7.2, 150 mM NaCl, 25°C, ex 485/em 520 nm, quadratic fit.

Assay [5] addresses MBP-Cyclin B1 (Homo sapiens, UniProt P14635). Particulars: relative to other cyclins.
Assay [6] deals with recombinant CDKs and cyclins. The experiment in a line: Fluorescence titration with recombinant CDKs and cyclins (summary statements). In kind it is binding. The note with it: FITC label, from titration curves, read-out: Dissociation constant, CDKs (range).
Assay [7] has as its system CDK/Cyclins in U20S cells. Put plainly: Live-cell ratiometric quantification of CDKSENS-Cy3/Ctrl-Cy5 fluorescence. The class given is cell-based. Particulars: U20S compared to HeLa. On the procedure: Cell culture media, serum and antibiotics were purchased from Invitrogen. HeLa, HS68, A549, MCF-7 and U2OS cells were obtained from ATCC and were cultured in Dulbecco's Modified Eagle Medium (DMEM)+Glutamax supplemented with 10% Fetal Calf Serum (FCS), 1 mM penicillin and 1 mM streptomycin at 37°C in an atmosphere containing 5% CO2. HT2-19 cells, provided by Dr. A.Porter, were cultured in DMEM supplemented with non essential amino acids, antibiotics, sodium pyruvate, glutamine, and 10% FCS and grown with 50 uM isopropyl-thiogalactoside (IPTG) for maximal induction of CDK1 [28]. […] Samples were then processed for SDS-PAGE and CDK, Cyclin retention was detected by Western blotting. […]
CDKSENS-Cy3 and Ctrl-Cy5 were complexed individually with CADY2 and codelivered into cells. Live-cell imaging acquisitions were substracted for background signal corresponding to minimal fluorescence levels using Metamorph. […] Regions of interest (ROI) corresponding to 10–15 cells in which fluorescence appeared homogeneous were designed and the mean grey levels of fluorescence for each channel (Cy3 and Cy5) were quantified within these ROIs. For each experiment, and the mean ratiometric value of CDKSENS-Cy3/Ctrl-Cy5 was calculated from 3–4 different ROIs. Each experiment was performed 3–4 times to assess the robustness of the quantification strategy. […]

Assay [8] has as its system endogenous CDK/Cyclin complexes from HS68 cell extracts. Put plainly: Pulldown from cell extracts with immobilized peptide. In kind it is binding, human. Particulars: Western blotting. On the procedure:
Cell culture media, serum and antibiotics were purchased from Invitrogen. HeLa, HS68, A549, MCF-7 and U2OS cells were obtained from ATCC and were cultured in Dulbecco's Modified Eagle Medium (DMEM)+Glutamax supplemented with 10% Fetal Calf Serum (FCS), 1 mM penicillin and 1 mM streptomycin at 37°C in an atmosphere containing 5% CO2. HT2-19 cells, provided by Dr. A.Porter, were cultured in DMEM supplemented with non essential amino acids, antibiotics, sodium pyruvate, glutamine, and 10% FCS and grown with 50 uM isopropyl-thiogalactoside (IPTG) for maximal induction of CDK1 [28]. Cell extracts were prepared in lysis buffer containing 50 mM TrisHCl, pH 7.4, 150 mM NaCl, 0.1% NP40, 0.1% Deoxycholate, 2 mM EDTA, 1 mM phenylmethlsulfonyl fluoride (PMSF), CompleteTM protease inhibitors (Roche), 50 mM NaF, 40 mM β-Glycero-phosphate, 1 mM Na3VO4 and normalized following spectrophotometric dosage at 280 nm. For pulldown experiments, CDKSENS or Ctrl peptide were crosslinked to CNBr Sepharose beads, then incubated with equal concentrations of HeLa cell extracts for 1 hr. Samples were then processed for SDS-PAGE and CDK, Cyclin retention was detected by Western blotting. […]
(Immunoblotting shows a protein as a band on a membrane.)

Assay [9] addresses T3, GST-CDK2/Cyclin A (Homo sapiens, UniProt P20248+P24941).
T3 construct: made in house; host or cells: E. coli
Put plainly: Steady-state fluorescence titration of FITC-labelled peptide. The class given is binding. The note with it: comparison in words.

As to `CC(C)C[C@H](NC(=O)[C@H](CCCNC(=N)N)NC(=O)[C@H](CCCNC(=N)N)NC(=O)[C@H](CCCCN)NC(=O)[C@H](C)NC(=O)[C@H](CO)NC(=O)CNC(=O)[C@H](C)NC(=O)[C@@H](NC(=O)[C@@H]1CCCN1C(=O)[C@H](CO)NC(=O)[C@H](CSC(=S)Nc1ccc2c(c1)C(=O)OC21c2ccc(O)cc2Oc2cc(O)ccc21)NC(=O)[C@H](Cc1ccc(O)cc1)NC(=O)[C@H](CCCNC(=N)N)NC(=O)[C@H](CCC(=O)O)NC(=O)[C@H](Cc1c[nH]cn1)NC(=O)[C@@H](NC(=O)[C@H](CCCNC(=N)N)NC(=O)[C@H](CCCCN)NC(=O)[C@H](CCCNC(=N)N)NC(=O)[C@@H]1CCCN1C(=O)CNC(=O)[C@H](C)NC(=O)[C@H](Cc1c[nH]cn1)NC(=O)[C@@H](N)Cc1c[nH]cn1)C(C)C)[C@@H](C)O)C(=O)N[C@@H](Cc1ccccc1)C(=O)NCC(=O)N[C@@H](CCC(=O)O)C(=O)N[C@@H](CC(=O)O)C(=O)O` [CDKSENS-FITC], the Kd entry in assay [1] and in assay [2] was “no binding” each time.

For the compound VESSDTIDNVKSKIQDKEGC [Ctrl], the Kd result in [3] and in assay [4] was “no binding” throughout.

As for HHAGPRKRVHERYCSPTAGSAKRRLFGED [CDKSENS], the “affinity for cyclin B lower than other cyclins” value in assay [5] is listed as 7–8 fold. Moreover, the pKd in [6] was 6.70 to 7.00. Further, in assay [7], the “difference in CDKSENS-Cy3/Ctrl-Cy5 ratio, U20S vs HeLa” value is “essentially identical values”. Also, the “levels of all CDK/Cyclin complexes retained, HS68 relative to HeLa” value in [8] was “net reduction”. The “affinity for CDK2-cyclinA complex versus monomeric CDK2 or cyclin A” value in assay [9] is “significantly higher affinity”.
